Experiment [1] deals with whole IR-A Arg717Gln transfected to R- cells (human) (UniProt P06213). Put plainly: radioligand binding; saturation binding of the 125I-labelled ligand (0.05-3 nM) to R- cells 24 h after transfection with the whole receptor; 16 h at 5°C; 100 mM HEPES/NaOH pH 7.6, 100 mM NaCl, 5 mM KCl, 1.3 mM MgSO4, 1 mM EDTA, 10 mM glucose, 15 mM sodium acetate, 1% BSA; non-specific binding (1 uM unlabelled ligand) subtracted; one-site specific binding fit.

Sequences of proteins named here, by UniProt entry; tags and fusion partners are left off. A line that says so, or that is headed by a name, gives the form on record, which may keep a tag or linker.
UniProt P06213, other isoform, or with tags, fused parts or gaps R717Q: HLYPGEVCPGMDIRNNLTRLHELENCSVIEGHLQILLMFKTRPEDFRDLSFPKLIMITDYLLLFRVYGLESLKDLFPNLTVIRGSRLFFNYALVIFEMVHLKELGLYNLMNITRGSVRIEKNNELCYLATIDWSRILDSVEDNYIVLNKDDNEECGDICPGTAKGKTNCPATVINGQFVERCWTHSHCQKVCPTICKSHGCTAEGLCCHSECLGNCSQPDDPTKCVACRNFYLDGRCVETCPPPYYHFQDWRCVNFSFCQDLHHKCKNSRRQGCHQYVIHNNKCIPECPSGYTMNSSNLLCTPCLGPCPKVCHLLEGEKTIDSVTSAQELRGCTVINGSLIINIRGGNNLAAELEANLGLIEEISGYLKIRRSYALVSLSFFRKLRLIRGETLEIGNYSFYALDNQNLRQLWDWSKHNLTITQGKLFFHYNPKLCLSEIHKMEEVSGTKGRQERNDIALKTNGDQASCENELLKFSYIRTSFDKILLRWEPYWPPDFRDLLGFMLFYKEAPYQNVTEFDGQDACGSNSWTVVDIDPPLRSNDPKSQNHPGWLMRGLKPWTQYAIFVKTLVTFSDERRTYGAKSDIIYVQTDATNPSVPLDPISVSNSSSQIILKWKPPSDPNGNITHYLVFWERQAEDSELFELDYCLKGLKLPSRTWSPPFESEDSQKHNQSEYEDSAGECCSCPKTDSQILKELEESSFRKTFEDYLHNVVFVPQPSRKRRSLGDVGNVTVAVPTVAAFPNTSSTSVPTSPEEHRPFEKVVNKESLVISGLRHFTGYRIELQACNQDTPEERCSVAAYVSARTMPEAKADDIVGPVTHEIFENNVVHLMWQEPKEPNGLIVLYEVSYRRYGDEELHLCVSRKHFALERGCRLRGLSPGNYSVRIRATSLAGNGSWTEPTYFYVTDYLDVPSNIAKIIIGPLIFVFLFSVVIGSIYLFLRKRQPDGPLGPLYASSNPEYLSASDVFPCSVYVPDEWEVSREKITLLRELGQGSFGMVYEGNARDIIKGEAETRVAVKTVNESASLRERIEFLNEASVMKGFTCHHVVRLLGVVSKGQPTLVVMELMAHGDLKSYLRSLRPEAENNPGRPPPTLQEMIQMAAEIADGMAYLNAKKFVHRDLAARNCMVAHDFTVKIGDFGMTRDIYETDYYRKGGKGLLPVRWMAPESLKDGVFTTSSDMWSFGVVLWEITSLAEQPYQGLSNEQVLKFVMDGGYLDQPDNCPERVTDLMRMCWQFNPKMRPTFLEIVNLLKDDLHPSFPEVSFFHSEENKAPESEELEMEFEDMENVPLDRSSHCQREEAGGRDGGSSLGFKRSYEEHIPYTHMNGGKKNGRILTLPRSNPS
UniProt P06213, other isoform, or with tags, fused parts or gaps R717K: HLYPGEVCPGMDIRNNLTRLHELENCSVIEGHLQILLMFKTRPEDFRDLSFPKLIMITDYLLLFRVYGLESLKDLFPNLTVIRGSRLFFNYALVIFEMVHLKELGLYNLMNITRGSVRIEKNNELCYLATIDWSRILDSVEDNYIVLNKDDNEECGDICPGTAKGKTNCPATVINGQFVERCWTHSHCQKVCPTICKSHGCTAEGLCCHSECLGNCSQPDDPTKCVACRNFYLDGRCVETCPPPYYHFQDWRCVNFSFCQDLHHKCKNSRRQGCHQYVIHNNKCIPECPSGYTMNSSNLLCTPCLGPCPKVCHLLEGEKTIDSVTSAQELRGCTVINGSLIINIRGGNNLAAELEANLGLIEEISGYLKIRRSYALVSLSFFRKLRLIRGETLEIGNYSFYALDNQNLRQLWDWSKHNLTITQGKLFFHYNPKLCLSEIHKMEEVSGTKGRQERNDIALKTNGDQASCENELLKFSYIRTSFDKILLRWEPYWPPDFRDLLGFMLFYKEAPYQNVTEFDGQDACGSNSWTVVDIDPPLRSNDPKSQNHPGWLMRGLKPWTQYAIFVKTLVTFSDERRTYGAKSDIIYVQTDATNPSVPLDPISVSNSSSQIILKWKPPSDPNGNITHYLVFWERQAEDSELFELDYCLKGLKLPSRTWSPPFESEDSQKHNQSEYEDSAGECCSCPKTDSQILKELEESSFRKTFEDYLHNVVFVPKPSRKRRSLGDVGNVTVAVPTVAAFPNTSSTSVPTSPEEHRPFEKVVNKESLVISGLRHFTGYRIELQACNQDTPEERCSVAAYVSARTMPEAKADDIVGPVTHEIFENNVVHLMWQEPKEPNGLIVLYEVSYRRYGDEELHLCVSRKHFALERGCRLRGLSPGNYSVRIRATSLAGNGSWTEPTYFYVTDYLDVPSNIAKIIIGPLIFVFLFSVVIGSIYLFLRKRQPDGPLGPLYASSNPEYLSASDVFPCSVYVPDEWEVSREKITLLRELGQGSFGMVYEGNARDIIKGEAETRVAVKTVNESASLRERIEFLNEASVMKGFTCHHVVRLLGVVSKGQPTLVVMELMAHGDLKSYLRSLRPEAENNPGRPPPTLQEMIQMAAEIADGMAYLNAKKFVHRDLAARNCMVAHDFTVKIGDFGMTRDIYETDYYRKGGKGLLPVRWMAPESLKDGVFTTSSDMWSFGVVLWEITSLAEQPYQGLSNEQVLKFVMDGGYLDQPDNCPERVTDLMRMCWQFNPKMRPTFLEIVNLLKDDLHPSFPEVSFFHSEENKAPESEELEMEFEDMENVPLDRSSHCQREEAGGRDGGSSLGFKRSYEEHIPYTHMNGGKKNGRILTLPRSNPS

Experiment [2] addresses whole IR-A Arg717Lys transfected to R- cells (human) (UniProt P06213). The experiment is described as above.
In experiment [3] the target is whole wild-type IR-A transfected to R- cells (human) (UniProt P06213). The experiment is described as above.
The target of experiment [4] is isolated wild-type ecto-IR-A conjugated with mCherry (human) (UniProt P06213). Put plainly: radioligand binding; saturation binding of the 125I-labelled ligand (0.05-5 nM) to isolated ectodomain-mCherry (300 ng/well) immobilised through its HisTag on 96-well plates by nickel-NTA iBodies with biotin on neutravidin; otherwise as the whole-cell assay; one-site specific binding fit.

By Kd is commonly meant the concentration at which binding is half-saturated. Read a high Kd as lower affinity. For the substance 125I-TyrA14 human insulin (ligand), the equilibrium dissociation constant (Kd) in experiment [1] was 270 pM; in experiment [2] it was 550 pM; in experiment [3] it was 200 pM; in experiment [4], 610 pM.
